This is an account of results in paper PMC2001498, “Effects of transplantation and resection of a radiation-induced rat insulinoma on glucose homeostasis and the endocrine pancreas” (British Journal of Cancer, 1986).

The conditions of this data set: plasma insulin (endogenous, tumour-derived) after resection of s.c. subscapular insulinoma 21 days after transplantation; sodium pentobarbitone anaesthesia 50 mg kg-1 i.p.; dextran-charcoal radioimmunoassay; groups of 12 rats.

With insulin, the “estimated half-life of insulin” value is given as 3.5 min.
